Source: paper PMC10566475, “A cell-active cyclic peptide targeting the Nrf2/Keap1 protein–protein interaction” (Chemical Science, 2023)

Protein sequences, listed by entry. Tags and fused reporters are not part of them. Residues count along the entry.
UniProt Q14145, 321-609: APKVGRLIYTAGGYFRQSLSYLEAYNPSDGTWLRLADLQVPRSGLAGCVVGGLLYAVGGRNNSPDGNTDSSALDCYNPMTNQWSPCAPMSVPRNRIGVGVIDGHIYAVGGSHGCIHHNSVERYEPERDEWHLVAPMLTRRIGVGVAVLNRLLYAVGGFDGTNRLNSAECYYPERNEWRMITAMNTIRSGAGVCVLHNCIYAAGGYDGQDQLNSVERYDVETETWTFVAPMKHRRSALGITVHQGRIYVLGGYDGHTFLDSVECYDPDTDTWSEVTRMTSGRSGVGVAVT
UniProt Q14145, whole entry: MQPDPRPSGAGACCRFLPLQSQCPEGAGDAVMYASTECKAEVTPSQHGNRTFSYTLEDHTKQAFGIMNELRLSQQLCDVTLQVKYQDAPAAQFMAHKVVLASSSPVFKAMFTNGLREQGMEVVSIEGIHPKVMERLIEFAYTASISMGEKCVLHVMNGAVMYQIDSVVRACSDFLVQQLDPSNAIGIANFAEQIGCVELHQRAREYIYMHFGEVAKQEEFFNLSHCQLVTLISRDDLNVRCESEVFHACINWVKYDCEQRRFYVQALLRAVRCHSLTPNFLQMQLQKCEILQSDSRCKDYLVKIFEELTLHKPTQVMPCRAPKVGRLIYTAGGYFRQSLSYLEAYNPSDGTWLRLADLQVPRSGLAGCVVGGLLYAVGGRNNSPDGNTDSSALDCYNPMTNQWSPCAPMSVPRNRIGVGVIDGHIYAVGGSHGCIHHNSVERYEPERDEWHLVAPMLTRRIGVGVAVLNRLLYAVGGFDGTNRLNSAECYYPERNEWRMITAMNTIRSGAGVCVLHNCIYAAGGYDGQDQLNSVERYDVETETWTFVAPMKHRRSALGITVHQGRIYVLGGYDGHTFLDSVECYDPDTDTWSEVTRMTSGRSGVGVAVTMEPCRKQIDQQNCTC

What was measured:
[1] = molecular target: T1, interaction between the human Keap1 Kelch domain and an Nrf2-ETGE peptide (Homo sapiens, UniProt Q14145); test: Keap1-Nrf2 TR-FRET (HTRF) assay; type: binding
T1 construct: 1nM purified human Keap1 Kelch domain (A321-T609) fused with N-terminal 6x His-tag; made in house
Source text: (§1) We based the design of our Nrf2-like cyclic peptides around the amino acid sequence of the ETGE motif (namely 12-mer ^73QLQLDEETGEF^84L) and SAR studies reported in the literature.[9,10,12,14] The […] motif is known to adopt a beta-turn conformation upon binding to Keap1. Residues Q73-Q75 and L85 stabilise the bound conformation, L76-D77 and E79-G81 bind deep into the pocket with E79 and E82 forming electrostatic interactions with Keap1 and D77 and T80 stabilising the beta-turn via H-bonds with E78 not contributing to the binding. In particular, our peptides aim to retain the beta-turn conformation and featured the E78P mutation which has been reported to improve the binding affinity.[9] […] The ability of the cyclic peptides to bind to the Kelch domain of Keap1 was evaluated using surface plasma resonance (SPR), where the Kelch domain is immobilised onto a SPR sensor chip. Additionally, we assessed the ability of the peptides to inhibit the PPI between Nrf2 and the Kelch domain of Keap1 using a time-resolved FRET (TR-FRET) assay. Here, the IC50 for inhibition of the interaction between the human Keap1 Kelch domain and an Nrf2-ETGE peptide is measured.
(§2) Surface Plasmon Resonance (SPR)
(§3) Peptide affinities to the Kelch domain of Keap1 is determined in a direct binding assay using 8K surface plasmon resonance (SPR) biosensor (Cytiva) at 20°C. Immobilization of Keap1 Kelch domain on a CM5 sensor chip (Cytiva) is performed using standard amine coupling procedure. The surface is washed with 10mM NaOH, 1M NaCl before activated with EDC/NHS (Cytiva), followed by immobilization of human Keap1 Kelch domain (A321-T609) fused with N-terminal 6x His-tag7 (in 10 mM MES, pH=6.4).
(§4) Finally, the surface is deactivated by Ethanolamine. Immobilization levels are typically 5000-6000 RU.
(§5) The reference spot is treated as described, omitting the injection of Keap1. Compound concentration series are injected over the immobilized protein in increasing concentrations using single cycle kinetics (SCK) in running buffer (10 mM HEPES, 150 mM NaCl, 0.05% Tween20, 1 mM TCEP, pH 7.4). A 1:1 Langmuir interaction model is fitted to the experimental traces, enabling determination of kon, koff and […]
(§6) In the time-resolved Förster resonance energy transfer (TR-FRET) assay8 the IC50 of inhibitors which are able to inhibit the interaction between the Keap1-Kelch domain and a Nrf2 derived ETGE peptide are determined. The TR-FRET is measured between a Tb-labelled mAb (Anti—6-His, Tb cryptate Gold, CisBio 61H12TLB) that binds to Keap 1 Kelch domain and d2-labelled SA-biotin-peptide.
(§7) The assay was performed in 384-well white low-volume, medium binding plates (Greiner Bio One, Austria) in 20 mM HEPES pH 7.5, 150 mM NaCl, 2 mM GSH (Sigma-Aldrich, USA),1mM EDTA (Sigma-Aldrich, USA), and 0.01% Pluronic F127 (MilliporeSigma, USA), with a final reaction volume of 10 µL.
(§8) To determine the ability of synthesized peptide to inhibit PPI between the Keap1 Kelch domain and Nrf2, 1nM purified human Keap1 Kelch domain (A321-T609) fused with N-terminal 6x His-tag, 5 nM biotinylated Nrf2 peptide ([…], Genescript, USA), d2-labeled streptavidin (Revvity, USA), and […] anti-His monoclonal antibody tagged with terbium cryptate (Revvity, USA), were incubated in the presence of varying concentrations of investigated peptides for 3 h at room […]
(§9) 7 Li X, Zhang D, Hannink M, Beamer LJ. Crystallization and initial crystallographic analysis of the Kelch domain from human Keap1. Acta
(§10) 8 S. Lee, D. Ali Abed, L. J. Beamer, L. Hu, Development of a Homogeneous Time-Resolved Fluorescence Resonance Energy Transfer (TR-
FRET) Assay for the Inhibition of Keap1–Nrf2 Protein–Protein Interaction, SLAS Discovery, 26, 1, 2021, Pages 100-112, ISSN 2472- […]
Following the incubation, the PHERAstar FSX […] microplate reader was used to measure the acceptor and donor emissions at 665 nm and 620 nm, respectively. The acceptor/donor ratio was used to calculate relative energy transfer. […]

[2] = molecular target: T2, human Keap1 Kelch domain (A321-T609) (Homo sapiens, UniProt Q14145); test: Surface plasmon resonance (SPR) direct binding assay, immobilised Keap1 Kelch domain
T2 construct: human Keap1 Kelch domain (A321-T609) fused with N-terminal 6x His-tag; 6xHis (N); made in house
Source text: as §1, §2, §3, §4, §5, §6, §7, §8, §9, §10
FRET) Assay for the Inhibition of Keap1–Nrf2 Protein–Protein Interaction, SLAS Discovery, 26, 1, 2021, Pages 100-112, ISSN 2472-

[3] = molecular target: NQO1 gene expression in BEAS-2B cells (Homo sapiens); test: BEAS-2B NQO1 assay (qPCR of NQO1 mRNA); type: cell-based; conditions: EC50 of NQO1 mRNA upregulation, 24 h, medium without FBS, read-out: BEAS2b
Source text: The effect of peptides on Nrf2-dependent gene expression was investigated in BEAS-2B cells, where we determined the upregulation of the mRNA of NAD(P)H quinone dehydrogenase (NQO1) by qPCR. The expression of NQO1 is Nrf2-dependent and it is one of the two major quinone reductases, which play a crucial role in protecting cells from oxidative stress.[40] ^§§ In the context of this study we chose BEAS-2B cells as a representative model for epithelial cells. The presence of serum has been reported to affect BEAS-2B cell phenotype. Specifically, exposure of BEAS-2B to FBS has been associated with squamous differentiation, alteration in cytokine secretion and response to toxicants.[42–44] […] The lack of activity of the peptides is unsurprising considering the overall negative net charge, which will obstruct their cellular uptake. In order to improve the cellular uptake, we took of advantage of the 2C-PS moiety, which not only allows the easy synthesis of a variety of macrocycles of different ring sizes, but also permits the facile introduction of a diverse set of moieties, which could enhance cell permeability. We pursued a diverse set of strategies to make the Keap1 peptide more cell permeable, namely: masking of the acidic amino acids with methyl esters, introduction of polyarginine peptides, GWWG-polyarginine peptides or a long-chain fatty acid tag onto the staple, as well as peptide shortening and a combination of these. The rationale behind these strategies is explained herein, and details of their synthesis can be found in the ESI. ^†
Cellular Biology Experimental
(Thermo Fisher Scientific, USA).
calculated using QunatStudio 7 software.

[4] = Table 1, single cycle kinetics, 1:1 Langmuir model

SMILES | IC50 ([1]; Table 1, geometric mean ± sd of at least 3 independent repeats unless stated, read-out: TR-FRET IC50) | Kd ([2]; Table 1, geometric mean ± sd of at least 3 independent repeats unless stated, 20°C) [nM] | koff [2, 4] [s⁻¹] | kon [2, 4] [M⁻¹ s⁻¹] | koff ([2]; Table 2) [s⁻¹] | kon ([2]; Table 2) [M⁻¹ s⁻¹] | IC50 ([1]; Table 2, IC50, minimum of three repeats, read-out: TR-FRET) [nM] | EC50 [3] [nM] | Kd ([2]; Table 2, geometric mean ± sd of at least two independent repeats)
CCOC(=O)CN(C)c1nc2cc(n1)CCSC[C@@H](C(=O)N[C@@H](CC(C)C)C(N)=O)NC(=O)[C@H](CCC(=O)O)NC(=O)CNC(=O)[C@H]([C@@H](C)O)NC(=O)[C@H](CCC(=O)O)NC(=O)[C@@H]1CCCN1C(=O)[C@H](CC(=O)O)NC(=O)[C@H](CC(C)C)NC(=O)[C@H](CCC(N)=O)NC(=O)[C@H](CC(C)C)NC(=O)[C@@H](NC(C)=O)CSCC2 [Peptide P3-F] (Ac-CLQLDPETGECL-NH2; linker 1-11 via X4) | 2 nM and 1.9 nM | 14 ± 1.4 | 0.0032 | 240000 |  |  |  |  | 
CC(=O)N[C@H]1CSCCc2cc(nc(NCCOCCOCc3cn(CCCCC(=O)NCC(=O)N[C@@H](Cc4c[nH]c5ccccc45)C(=O)N[C@@H](Cc4c[nH]c5ccccc45)C(=O)NCC(=O)N[C@H](CCCNC(=N)N)C(=O)N[C@H](CCCNC(=N)N)C(=O)N[C@H](CCCNC(=N)N)C(N)=O)nn3)n2)CCSC[C@@H](C(=O)N[C@@H](CC(C)C)C(N)=O)NC(=O)[C@H](CCC(=O)O)NC(=O)CNC(=O)[C@H]([C@@H](C)O)NC(=O)[C@H](CCC(=O)O)NC(=O)[C@@H]2CCCN2C(=O)[C@H](CC(=O)O)NC(=O)[C@H](CC(C)C)NC(=O)[C@H](CCC(N)=O)NC(=O)[C@H](CC(C)C)NC1=O [Peptide P3-G] (I: Ac-CLQLDPETGECL-NH2 / II: GWWG[dR][dR][dR]-NH2; linker I:1-I:11-II:N via X2) |  |  |  |  | 0.00072 | 340000 |  |  | 
CCCCCCCCCCCCCCCCCC(=O)NCCCC[C@H](NC(=O)COCCOCCNC(=O)COCCOCCn1cc(COCCOCCNc2nc3cc(n2)CCSC[C@@H](C(=O)N[C@@H](CC(C)C)C(N)=O)NC(=O)[C@H](CCC(=O)O)NC(=O)CNC(=O)[C@H]([C@@H](C)O)NC(=O)[C@H](CCC(=O)O)NC(=O)[C@@H]2CCCN2C(=O)[C@H](CC(=O)O)NC(=O)[C@H](CC(C)C)NC(=O)[C@H](CCC(N)=O)NC(=O)[C@H](CC(C)C)NC(=O)[C@@H](NC(C)=O)CSCC3)nn1)C(=O)NCCOCCOCC(=O)NCCOCCOCC(N)=O [Peptide P3-H] (Ac-CLQLDPETGECL-NH2; linker 1-11 via X3) |  |  |  |  | 0.00073 | 160000 | 2 ± 1.6 | > 10000 | 4 nM and 4.5 nM
CCOC(=O)CN(C)c1nc2cc(n1)CCSC[C@@H](C(=O)N[C@@H](CC(C)C)C(N)=O)NC(=O)[C@H](CCC(=O)OC)NC(=O)CNC(=O)[C@H]([C@@H](C)O)NC(=O)[C@H](CCC(=O)O)NC(=O)[C@@H]1CCCN1C(=O)[C@H](CC(=O)OC)NC(=O)[C@H](CC(C)C)NC(=O)[C@H](CCC(N)=O)NC(=O)[C@H](CC(C)C)NC(=O)[C@@H](NC(C)=O)CSCC2 [Peptide P4-F] (Ac-CLQLD(OMe)PETGE(OMe)CL-NH2; linker 1-11 via X4; N-terminus assumed) |  |  |  |  | 0.049 | 58000 |  |  | 

“And” between values parts separate entries of the source, which are not always exact repeats. Equal entries are not always repeated. Where two headings read alike, the source gives them in different places. *1 amine or outer side, *2 acyl side, *3 side chain or, on linkers, in order; H or OH if unused. Where a SMILES comes first, the peptide text is derived from it. Bridges are numbered along the chain shown (N, C = ends). Roman numbers before positions name the chains, in order. [ ]: non-standard residue; d: D form. X3 = CCCCCCCCCCCCCCCCCC(=O)NCCCC[C@H](NC(=O)COCCOCCNC(=O)COCCOCCn1cc(COCCOCCNc2nc(CC[*:1])cc(CC[*:2])n2)nn1)C(=O)NCCOCCOCC(=O)NCCOCCOCC(N)=O; X2 = O=C(CCCCn1cc(COCCOCCNc2nc(CC[*:1])cc(CC[*:2])n2)nn1)[*:3]; X4 = CCOC(=O)CN(C)c1nc(CC[*:1])cc(CC[*:2])n1
